These results are taken from patent US20160046618A1, “Cyclopropyl Fused Thiazin-2-Amine Compounds as Beta-Secretase Inhibitors and Methods of Use” (AMGEN INC., priority 2014, published 2016).

By UniProt entry, the sequences of proteins in these tests, tags left out. Residues count along the entry.
UniProt Q9Y5Z0, 63-518 limits assumed: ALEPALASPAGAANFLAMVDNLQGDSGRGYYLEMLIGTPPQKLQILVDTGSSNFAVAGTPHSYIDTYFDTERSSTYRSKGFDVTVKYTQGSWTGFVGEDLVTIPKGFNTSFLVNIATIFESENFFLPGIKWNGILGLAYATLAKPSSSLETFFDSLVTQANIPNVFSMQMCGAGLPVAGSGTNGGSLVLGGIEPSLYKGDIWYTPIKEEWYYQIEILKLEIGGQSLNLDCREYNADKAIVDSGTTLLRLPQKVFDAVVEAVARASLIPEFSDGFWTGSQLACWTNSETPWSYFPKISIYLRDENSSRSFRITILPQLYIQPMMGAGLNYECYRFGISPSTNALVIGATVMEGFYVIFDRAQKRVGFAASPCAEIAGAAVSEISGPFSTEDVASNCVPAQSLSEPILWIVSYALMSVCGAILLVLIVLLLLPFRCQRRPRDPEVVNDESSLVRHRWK
UniProt P56817, 46-501 limits assumed: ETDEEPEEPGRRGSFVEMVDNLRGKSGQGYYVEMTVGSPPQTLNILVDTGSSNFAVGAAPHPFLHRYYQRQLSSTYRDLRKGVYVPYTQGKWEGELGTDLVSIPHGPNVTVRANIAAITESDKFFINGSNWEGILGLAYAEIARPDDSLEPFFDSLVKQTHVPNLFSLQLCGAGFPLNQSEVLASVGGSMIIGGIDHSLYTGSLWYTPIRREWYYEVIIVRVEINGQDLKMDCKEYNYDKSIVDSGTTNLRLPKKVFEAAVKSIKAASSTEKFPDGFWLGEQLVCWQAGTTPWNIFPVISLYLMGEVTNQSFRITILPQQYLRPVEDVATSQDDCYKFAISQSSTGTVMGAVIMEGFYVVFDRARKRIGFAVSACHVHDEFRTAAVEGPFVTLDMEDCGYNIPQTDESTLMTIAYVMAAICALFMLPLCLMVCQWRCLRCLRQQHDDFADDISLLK
UniProt P07339, 65-412 limits assumed: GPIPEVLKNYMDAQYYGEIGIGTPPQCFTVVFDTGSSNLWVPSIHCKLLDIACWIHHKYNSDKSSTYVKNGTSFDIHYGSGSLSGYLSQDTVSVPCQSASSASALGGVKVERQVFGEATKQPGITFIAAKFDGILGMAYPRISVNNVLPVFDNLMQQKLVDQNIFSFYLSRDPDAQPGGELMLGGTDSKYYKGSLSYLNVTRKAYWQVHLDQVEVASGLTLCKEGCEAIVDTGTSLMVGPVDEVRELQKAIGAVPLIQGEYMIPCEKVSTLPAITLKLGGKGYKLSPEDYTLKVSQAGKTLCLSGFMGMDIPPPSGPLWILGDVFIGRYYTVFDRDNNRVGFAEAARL

The target of experiment [1] is human recombinant BACE2 (Homo sapiens (Human), UniProt Q9Y5Z0). Put plainly: In vitro enzymatic BACE2 FRET assay. The note with it: read-out: IC50 IP (μM) BACE2 enzyme. The experiment is classed as biochemical.
The target in experiment [2] is human recombinant BACE1 (Homo sapiens (Human), UniProt P56817). Put plainly: In vitro enzymatic BACE1 FRET assay. The experiment is classed as biochemical. To be noted: read-out: IC50 IP (μM) BACE1 enzyme.
The target in experiment [3] is Recombinant Cat D (Homo sapiens (Human), UniProt P07339). Put plainly: In vitro enzymatic Cathepsin D (Cat D) FRET assay. The experiment is classed as biochemical. The note with it: read-out: IC50 IP (μM) CatD.
In experiment [4] the test system is Aβ40 in conditioned medium of cells stably expressing Amyloid Precursor Protein (APP). Put plainly: In vitro BACE-1 cell-based assay (Aβ40 sandwich ELISA). The note with it: read-out: IC50 IP (μM) BACE1 cell. (ELISA stands for enzyme-linked immunosorbent assay.)

For orientation: IC50 means the midpoint of a concentration-inhibition curve. With `C#C[C@H](C)Oc1cnc2c(Nc3cc(F)c(F)c([C@@]4(C)N=C(N)S[C@@]5(C(F)F)C[C@@H]45)c3)nccc2n1`, the IC50 was found to be 0.2 µM in experiment [1], 0.001 µM in experiment [2], 517 µM in experiment [3] and 0.0257 µM in experiment [4].
